Laboratory results taken from US5236903A, “Polypeptide comprising repeated cell-adhesive core sequences” (Azuma; Ichiro, priority 1988, dated 1993).

System: erythrocytes, spleen and thymus cells
Assay: Cytotoxicity on erythrocytes, spleen and thymus cells

| Substance | Cytotoxicity on erythrocytes, spleen and thymus cells |
| --- | --- |
| Poly(L-arginyl-glycyl-L-aspartic acid)hydrochloride [Poly(Arg-Gly-Asp)-1500] | neither any cytotoxicity |
| Poly(L-arginylglycyl-L-aspartate hydrochloride) [Poly(Arg-Gly-Asp)] | neither any cytotoxicity |
